{"source": "patent US9734282B2", "about": "“Biological dataset profiling of cardiovascular disease and cardiovascular inflammation” (DISCOVERX CORPORATION, priority 2005, dated 2017)", "key": {"[1]": {"tested_on": "Primary Human Endothelial Cells (HUVEC)", "assay": "BioMAP 4H system (endothelial cells + IL-4 + histamine), cell-based ELISA", "settings": "protein level drug-treated versus buffer control, 24 h", "description": "Human umbilical vein endothelial cells (HUVEC) were cultured according to standard methods, and plated into microtiter plates. Peripheral blood mononuclear cells (PBMC) were prepared from buffy coats from normal human donors according to standard methods. Experiments were performed by culturing HUVEC in microtiter plates in the presence of cytokines (IL-1b, 1 ng/ml; TNF-a, 5 ng/ml; and IFN-g, 100 ng/ml, or IL-4, 5 ng/ml and histamine, […]), activators (SAg, 20 ng/ml or LPS, 0.2 ng/ml), and/or PBMC (7.5×10^4 cells/well) for 24 h. Compounds were tested at the indicated concentrations. […]\nThe levels of readout parameters (proteins) were measured by cell-based ELISA. […] Plates were washed and developed with TMB substrate and the absorbance (OD) was read at 450 nm (subtracting the background absorbance at 650 nm). Other readout parameters include: total protein levels (SRB assay), measuring the viability of peripheral blood mononuclear cells (incorporation of propidium iodide); and microscopic visualization. SRB was performed by staining cells with 0.1% sulforhodamine B after fixation with 10% TCA, and reading wells at 560 nm. PBMC viability was assessed by adding propidium iodide (10 mg/ml) to PBMC that had been cultured for 24 hours in the presence of activators and measuring the percentage of cells that incorporated dye by flow cytometry after 10 minutes. […]"}, "[2]": {"tested_on": "Peripheral Blood Mononuclear Cells + Endothelial Cells", "assay": "BioMAP SAg system (PBMC + endothelial cells, TCR), cell-based ELISA", "parameters": "species or system human", "settings": "protein level drug-treated versus buffer control, 24 h", "description": "Human umbilical vein endothelial cells (HUVEC) were cultured according to standard methods, and plated into microtiter plates. Peripheral blood mononuclear cells (PBMC) were prepared from buffy coats from normal human donors according to standard methods. Experiments were performed by culturing HUVEC in microtiter plates in the presence of cytokines (IL-1b, 1 ng/ml; TNF-a, 5 ng/ml; and IFN-g, 100 ng/ml, or IL-4, 5 ng/ml and histamine, […]), activators (SAg, 20 ng/ml or LPS, 0.2 ng/ml), and/or PBMC (7.5×10^4 cells/well) for 24 h. Compounds were tested at the indicated concentrations. Compounds were prepared in the solvent as directed, added 1 hr before stimulation of the cells, and were present during the whole 24 hr stimulation period.\nThe levels of readout parameters (proteins) were measured by cell-based ELISA. Briefly, microtiter plates are treated, blocked, and then incubated with primary antibodies or isotype control antibodies (0.01-0.5 mg/ml) for 1 hr. After washing, plates were incubated with a peroxidase-conjugated anti-mouse IgG secondary antibody or a biotin-conjugated anti-mouse IgG antibody for 1 hr followed by streptavidin-HRP for 30 min. Plates were washed and developed with TMB substrate and the absorbance (OD) was read at 450 nm (subtracting the background absorbance at 650 nm). Other readout parameters include: total protein levels (SRB assay), measuring the viability of peripheral blood mononuclear cells (incorporation of propidium iodide); and microscopic visualization. SRB was performed by staining cells with 0.1% sulforhodamine B after fixation with 10% TCA, and reading wells at 560 nm. PBMC viability was assessed by adding propidium iodide (10 mg/ml) to PBMC that had been cultured for 24 hours in the presence of activators and measuring the percentage of cells that incorporated dye by flow cytometry after 10 minutes.\nFor data analysis, mean OD values (or other measurements) for each parameter were calculated from triplicate samples per experiment. […] 99% prediction envelopes (grey shading in Figures) were calculated for historical controls."}}, "data": [{"smiles": "CC[C@H](C)C(=O)O[C@H]1C[C@@H](C)C=C2C=C[C@H](C)[C@H](CC[C@@H]3C[C@@H](O)CC(=O)O3)[C@H]21", "note": "[lovastatin]", "values": [{"measurement": "P-selectin level", "setting": "[1]", "value": "increases"}, {"measurement": "CD69 level", "setting": "[2]", "value": "significant decreases"}, {"measurement": "E-selectin level", "setting": "[2]", "value": "increases"}, {"measurement": "IL-8 level", "setting": "[2]", "value": "increases"}]}]}
